Results on 2 molecules are retold here after ChEMBL document CHEMBL4428025 (J Med Chem, 2016).

Chains of the proteins cited; added tags and fusions are not shown. Lines headed by an entry give the natural chain unless they say otherwise; changes in a name come on top.
UniProt P41146: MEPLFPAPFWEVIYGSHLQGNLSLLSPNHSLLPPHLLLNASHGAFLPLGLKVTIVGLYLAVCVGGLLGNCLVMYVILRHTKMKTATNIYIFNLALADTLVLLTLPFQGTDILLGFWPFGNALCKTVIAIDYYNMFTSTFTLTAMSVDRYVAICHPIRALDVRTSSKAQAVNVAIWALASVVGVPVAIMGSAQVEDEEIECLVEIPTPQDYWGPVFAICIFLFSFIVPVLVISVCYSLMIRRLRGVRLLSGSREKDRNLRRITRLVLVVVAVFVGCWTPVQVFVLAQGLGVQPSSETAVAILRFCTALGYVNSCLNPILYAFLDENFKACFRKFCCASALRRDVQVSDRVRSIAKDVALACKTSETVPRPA
UniProt P35372, whole entry, looked up: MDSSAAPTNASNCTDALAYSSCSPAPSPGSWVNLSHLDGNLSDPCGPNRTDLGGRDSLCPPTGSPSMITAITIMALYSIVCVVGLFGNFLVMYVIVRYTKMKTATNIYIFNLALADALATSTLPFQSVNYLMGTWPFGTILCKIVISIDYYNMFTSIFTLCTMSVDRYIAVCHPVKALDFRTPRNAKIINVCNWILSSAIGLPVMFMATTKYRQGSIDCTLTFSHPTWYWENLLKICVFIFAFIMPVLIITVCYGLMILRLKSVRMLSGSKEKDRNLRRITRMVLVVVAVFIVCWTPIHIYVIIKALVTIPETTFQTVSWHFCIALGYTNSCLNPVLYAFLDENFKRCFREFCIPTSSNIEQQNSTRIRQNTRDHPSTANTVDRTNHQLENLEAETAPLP

The Ki is a dissociation constant, usually derived from enzyme kinetics or from competition with a known ligand. One may read the EC50 as the concentration giving half of the maximal effect. Higher therefore signals weaker potency.

In experiment [1] the target is T1, Nociceptin receptor (Homo sapiens, UniProt P41146). In words: Displacement of [125I][Tyr14]nociceptin/orphanin FQ from human nociceptin opioid receptor expressed in CHO cell membranes after 1 hr by microplate scintillation counting method.
The target of experiment [2] is T2, Mu-type opioid receptor (Homo sapiens, UniProt P35372). In words: Displacement of [3H]diprenorphine from human mu opioid receptor expressed in CHO cell membranes after 1 hr by microplate scintillation counting method.
Experiment [3] concerns the target T1, Nociceptin receptor. The experiment in a line: Agonist activity at human nociceptin opioid receptor expressed in CHO cell membranes by GTPgamma(35)S binding assay.
Experiment [4] deals with T2, Mu-type opioid receptor. The experiment in a line: Displacement of [3H]DAMGO from recombinant human mu opioid receptor expressed in CHO cell membranes after 60 mins by scintillation counting method.

Consider `NCc1ccccc1C1(O)CC2CCC(C1)N2C(c1ccccc1Cl)c1ccccc1Cl` (centres undefined), for which the values for the Ki in experiment [1] and in experiment [2] were 0.38 nM and 21 nM, respectively. This molecule also had an EC50 in experiment [3] of 1.5 nM.
Take `Cc1cccc2c1CC[C@H](CN1CCC(c3c(Cl)cccc3Cl)CC1)C[C@@H]2O`: the Ki in experiment [4] came out at 58 nM.
